PubChem BioAssay AID463190 (Sanford-Burnham Center for Chemical Genomics, 2010)
The entries are a selection whose mix differs from that of the whole data set. Some structures show a salt or complex split into parts, the way the source records it. Active and inactive are the calls of the source.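 Rule for the calls: active = inhibition of at least 40%; inactive = the rest.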

Assay: growth inhibition of tim10-1 ts yeast – luminescence, uHTS, primary screen (AID 463190);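 note: mutant grown at 25 °C; 0% = DMSO wells with yeast and 100% = wells holding no yeast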
Conditions: S. cerevisiae tim10-1 ts strain growth, BacTiter-Glo, 24 h; at 20 µM; hits give high values

SMILES	inhibition
Cc1ccccc1NP(C)(=O)Nc1ccccc1C	inactive: 22%
CP(=O)(Nc1ccc2c(c1)OCCO2)Oc1ccccc1 (configuration not stated)	inactive: 0.061%
CCOP(C)(=S)SCC(=O)NC(C)(CC)C(=O)O (configuration not stated)	inactive: 1.56%
CP(=O)(Nc1ccc(SC(F)(F)F)cc1)Oc1ccc(F)cc1 (configuration not stated)	inactive: 3.76%
O=[N+]([O-])c1cc([N+](=O)[O-])c(NCC2CCS(=O)(=O)C2)c([N+](=O)[O-])c1 (configuration not stated)	inactive: 14.1%
COc1ccc(NP(C)(=O)Oc2ccccc2OC)cc1 (configuration not stated)	inactive: -3.24%
CN(C)CCOC(=O)C(O)(c1ccccc1)C1CCCCC1 (configuration not stated)	inactive: -10%
COc1ccc(OP(C)(=O)Nc2cccc(Br)c2)cc1 (configuration not stated)	inactive: 28.4%
O=[N+]([O-])c1cc([N+](=O)[O-])c(OC2CCCCC2O)c([N+](=O)[O-])c1 (configuration not stated)	inactive: 7.67%
CCCCCOc1ccc(NP(C)(=O)Oc2ccc(Cl)cc2Cl)cc1 (configuration not stated)	active: 41.2%
CP(=O)(Nc1ccccc1)Oc1ccc(F)cc1 (configuration not stated)	inactive: -12.6%
CCN(CC)CCCOC(=O)C(O)(c1ccccc1)C1CCCCC1 (configuration not stated)	inactive: -3.96%
COc1ccc(OP(C)(=O)Nc2ccc(SC(F)(F)F)cc2)cc1 (configuration not stated)	inactive: 3.76%
CCOC(=O)c1ccc(NP(C)(=O)Oc2ccc(F)cc2)cc1 (configuration not stated)	inactive: -1.04%
COc1ccc2c(c1O)-c1c(O)c(OC)cc3c1[C@H](C2)[N+](C)(C)CC3.O=[N+]([O-])c1cc([N+](=O)[O-])c([O-])c([N+](=O)[O-])c1[O-]	inactive: 2.24%
O=C(OCCN1CCN(CCOCc2ccccc2)CC1)C(O)(c1ccccc1)c1ccccc1	inactive: 10.8%
O=C(OC1CN2CCC1CC2)c1ccc([N+](=O)[O-])cc1 (configuration not stated)	inactive: -93.2%
CC(C)c1ccc(OP(C)(=O)Nc2ccc(SC(F)(F)F)cc2)cc1 (configuration not stated)	inactive: 38.1%
CP(=O)(Nc1ccccc1F)Oc1ccccc1 (configuration not stated)	inactive: 14%
CCc1ccc(OP(C)(=O)O)cc1	inactive: -9.05%
CP(=O)(Nc1ccccn1)Oc1ccccc1 (configuration not stated)	inactive: 18.4%

SMILES	inhibition
COc1ccccc1OP(C)(=O)Nc1ccc(C)cc1C (configuration not stated)	inactive: 13.3%
O=[N+]([O-])c1cc([N+](=O)[O-])c(Nc2ccccn2)c([N+](=O)[O-])c1	active: 59.2%
Cc1c(NP(C)(=O)Oc2ccc(C(C)C)cc2)c(=O)n(-c2ccccc2)n1C (configuration not stated)	inactive: -8.35%
CN(C)CCOC(=O)C(O)(c1ccccc1)C1CCCC1 (configuration not stated)	inactive: 14.7%
COc1ccc(OP(C)(=O)Nc2ccccn2)cc1 (configuration not stated)	inactive: 11.5%
COc1ccccc1OP(C)(=O)Nc1ccc(Br)cc1 (configuration not stated)	inactive: -7.96%
CP(=O)(OCCOc1ccccc1)OCCOc1ccccc1	inactive: 20.5%
CP(=O)(Nc1ccc(Cl)cc1Cl)Oc1ccccc1 (configuration not stated)	inactive: 27.3%
Cc1nc2ccc3ccccc3c2o1.O=[N+]([O-])c1cc([N+](=O)[O-])c(O)c([N+](=O)[O-])c1	inactive: 34%
COc1ccc(OP(C)(=O)Nc2ccccc2Br)cc1 (configuration not stated)	inactive: -4.3%
COc1ccccc1OP(C)(=O)Nc1ccc(C)c(C)c1 (configuration not stated)	inactive: -1.74%
Cc1cc(C)cc(OP(C)(=O)Nc2cccc(C(F)(F)F)c2)c1 (configuration not stated)	inactive: 24.6%
CP(=O)(OC12CC3CC(CC(C3)C1)C2)OC12CC3CC(CC(C3)C1)C2	active: 45.6%
CCOC(=O)c1ccc(NP(C)(=O)Oc2ccc(Cl)cc2)cc1 (configuration not stated)	inactive: 11.4%
Nc1ccc2c(ccc3cccnc32)n1.O=[N+]([O-])c1cc([N+](=O)[O-])c(O)c([N+](=O)[O-])c1	inactive: -10.9%
CN(C)C(=O)c1c([N+](=O)[O-])cc([N+](=O)[O-])cc1[N+](=O)[O-]	inactive: 19.7%
CP(=O)(Nc1ccc(Cl)cc1)Oc1ccc(F)cc1 (configuration not stated)	inactive: 25.5%
CC(C)(C)c1ccc(OP(C)(=O)O)cc1	inactive: -4.53%
COc1ccccc1OP(C)(=O)Nc1ccccc1Br (configuration not stated)	inactive: 18.9%
CP(=O)(Oc1ccccc1)N1CCOC1=O (configuration not stated)	inactive: 0.628%
CCc1ccc(OP(C)(=O)Nc2cccnc2)cc1 (configuration not stated)	inactive: 9.43%

SMILES	inhibition
COc1ccccc1OP(C)(=O)Nc1c(C)n(C)n(-c2ccccc2)c1=O (configuration not stated)	inactive: 5.82%
O=C(OCCCN1CCCC1)C(O)(c1ccccc1)C1CCCCC1 (configuration not stated)	inactive: 1.01%
CCN(CC)CC(O)COC(=O)C(O)(c1ccccc1)C1CCCCC1 (configuration not stated)	inactive: -6.99%
COc1ccc(OP(C)(=O)Nc2ccc(Br)cc2)cc1 (configuration not stated)	inactive: 15.4%
CP(=O)(Nc1ccccn1)Oc1ccc(Cl)cc1 (configuration not stated)	inactive: -14.7%
CCOP(C)(=S)SCC(=O)NC(C)C(=O)O (configuration not stated)	inactive: 6.57%
O=[N+]([O-])c1cc([N+](=O)[O-])c(O)c([N+](=O)[O-])c1.c1ccc(Oc2ccncc2)cc1	inactive: 3.32%
CCOC(=O)c1ccc(NP(C)(=O)Oc2ccc(OC)cc2)cc1 (configuration not stated)	inactive: 13.1%
CCc1ccc(OP(C)(=O)N2CCN(c3ccc([N+](=O)[O-])cc3)CC2)cc1 (configuration not stated)	inactive: 30.1%
CP(=O)(NC(=O)Nc1ccccc1)Oc1ccccc1 (configuration not stated)	inactive: -3.13%
Cc1cc(C)cc(OP(C)(=O)Nc2ccc(SC(F)(F)F)cc2)c1 (configuration not stated)	inactive: 23.6%
CP(=O)(Nc1ccc(SC(F)(F)F)cc1)Oc1ccc(Cl)cc1 (configuration not stated)	inactive: -5.75%
Cc1cccc(C)c1OP(C)(=O)Nc1ccc(SC(F)(F)F)cc1 (configuration not stated)	inactive: 28.5%
CP(=O)(Oc1ccccc1)OC(c1ccccc1)C(F)(F)F (configuration not stated)	inactive: 0.534%
COc1ccccc1OP(C)(=O)Nc1ccccc1 (configuration not stated)	inactive: 5.24%
CP(=O)(Nc1ccccc1Br)Oc1ccccc1 (configuration not stated)	inactive: -7.31%
CP(=S)(Nn1cnnc1)Oc1ccccc1 (configuration not stated)	inactive: -10.6%
COc1ccccc1OP(C)(=O)Nc1cc(Cl)ccc1C (configuration not stated)	inactive: 9.91%
COc1ccc(OP(C)(=O)Nc2cccc(F)c2)cc1 (configuration not stated)	inactive: 6.68%
Cc1cc(C)cc(OP(C)(N)=O)c1 (configuration not stated)	inactive: -8.83%
